Protein sequences, listed by entry. Tags and fused reporters are not part of them. Residues count along the entry.
UniProt O42275, 24-633: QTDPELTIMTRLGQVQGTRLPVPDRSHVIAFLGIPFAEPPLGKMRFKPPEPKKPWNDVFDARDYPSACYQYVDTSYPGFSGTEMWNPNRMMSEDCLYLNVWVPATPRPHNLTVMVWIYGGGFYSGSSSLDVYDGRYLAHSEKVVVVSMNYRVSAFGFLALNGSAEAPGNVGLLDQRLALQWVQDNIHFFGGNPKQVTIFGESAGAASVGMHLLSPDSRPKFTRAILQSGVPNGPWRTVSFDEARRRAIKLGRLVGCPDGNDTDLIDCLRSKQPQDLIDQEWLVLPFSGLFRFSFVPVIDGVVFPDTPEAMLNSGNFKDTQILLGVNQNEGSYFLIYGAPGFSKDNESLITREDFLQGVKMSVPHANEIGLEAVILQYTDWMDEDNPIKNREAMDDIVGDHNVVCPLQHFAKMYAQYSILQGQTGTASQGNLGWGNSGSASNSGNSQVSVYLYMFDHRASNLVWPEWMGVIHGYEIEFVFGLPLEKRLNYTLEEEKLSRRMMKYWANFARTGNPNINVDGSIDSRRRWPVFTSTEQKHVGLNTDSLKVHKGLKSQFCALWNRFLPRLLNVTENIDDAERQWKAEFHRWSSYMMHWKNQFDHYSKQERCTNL

In patent publication US4831033A (City of Hope, priority 1988, dated 1989):

Experiments:
Acetylcholinesterase = target: T1, Acetylcholinesterase (Electrophorus electricus, UniProt O42275); test: Acetylcholinesterase activity, acetylthiocholine substrate, colorimetric (Ellman); format: biochemical, electric eel
T1 construct: prepared from the electric organ of the electric eel; from tissue; host or cells: electric organ of the electric eel

[1] = system: K^+ transport, P3 membrane fractions from whole brains of Swiss mice; test: K^+ transport (^86 Rb uptake) in P3 membrane fractions; format: biochemical

SMILES: Nc1c2ccccc2nc2ccccc12 [9-aminoacridine]
- cholinesterase inhibitory potency compared with amodiaquin (in words) (Acetylcholinesterase): less than one-tenth
- concentration inhibiting acetylcholinesterase (selection criterion) (Acetylcholinesterase; micromolar or lower concentrations): ≤ 10^6 M
- K^+ Transport Relative Potency ([1]; relative to amodiaquin): 0.57
- concentration inhibiting K^+ transport (selection criterion) ([1]; submillimolar concentrations): ≤ 10^-3 M
